Measured values from patent EP3417074B1, “ANALYTICAL METHODS AND ARRAYS FOR USE IN THE SAME” (SenzaGen AB, priority 2016, dated 2017).

Assays:
MUTZ-3 cells = assay: GARD binary classification (SVM on GARD prediction signature, 200 transcripts); conditions: Table 8; average SVM decision value derived from triplicates
human skin = conditions: cited from earlier work

Substance: 1-butanol
- SVM DV (MUTZ-3 cells): -2,07
- HP (human skin): 6
- Human potency (human skin): 6
